Measurements as given in PubChem BioAssay AID1961 (Sanford-Burnham Center for Chemical Genomics, 2009).
Only a part is listed here, and it is no random draw. Activity calls are given as the source filed them.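 Rule for the calls: active = activation above 40% with more than 50 cells counted in the well; inconclusive = wells holding fewer than 50 cells, flagged as toxic or sparse; inactive = the rest.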

Protein sequences, listed by entry. Tags and fused reporters are not part of them. Lines headed by an entry give the natural chain unless they say otherwise; changes in a name come on top.
UniProt Q9Y2T6: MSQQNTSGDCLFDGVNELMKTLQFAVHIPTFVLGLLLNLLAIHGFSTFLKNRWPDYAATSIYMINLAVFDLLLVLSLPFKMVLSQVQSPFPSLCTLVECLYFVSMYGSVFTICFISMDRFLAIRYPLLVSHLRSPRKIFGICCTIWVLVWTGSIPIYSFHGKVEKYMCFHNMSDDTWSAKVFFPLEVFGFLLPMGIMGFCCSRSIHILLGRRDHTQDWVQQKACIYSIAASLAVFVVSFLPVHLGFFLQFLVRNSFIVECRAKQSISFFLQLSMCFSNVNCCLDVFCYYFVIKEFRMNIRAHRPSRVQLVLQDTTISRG

Biological target: G-protein coupled receptor 55 (Homo sapiens) (UniProt Q9Y2T6)
Assay: selective activators of receptor GPR55 – imaging, U2OS cells, beta-arrestin-GFP redistribution, primary screen (AID 1961);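 note: U2OS osteosarcoma cells stably expressing GPR55 and beta-arrestin-GFP; plate controls were DMSO negative control for no effect and LPI positive control for full effect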
Conditions: at 10 µM, hits give high values

Row | Compound | activation
1 | CCOC(=O)c1ccc(NC(=O)C(C)(CCl)SC)cc1 (stereo unspecified) | inactive: 0.4%
2 | CCC(C)N(CC(C)C)C(=S)SC(NC(C)=O)C(Cl)(Cl)Cl (stereo unspecified) | inactive: -0.2%
3 | O=C(COc1ccccc1)OC1CN2CCC1CC2 (stereo unspecified) | inactive: 0.7%
4 | O=C(Nc1ccncc1[N+](=O)[O-])c1ccc([N+](=O)[O-])cc1[N+](=O)[O-] | inactive: 0.2%
5 | CCOC(=O)Nc1cccc([As](=O)(O)O)c1 | inactive: 0%
6 | Cc1cc(SC(NC=O)C(Cl)(Cl)Cl)ncn1 (stereo unspecified) | inactive: 0%
7 | ClCCSc1nnc(-c2cccnc2)o1 | inactive: -0.3%
8 | CCN(CC)C(=S)SC(NC=O)C(Cl)(Cl)Cl (stereo unspecified) | inactive: 0%
9 | CC(C)NC(=O)NP(=O)(Oc1ccccc1)Oc1ccccc1 | inactive: -0.3%
10 | O=[N+]([O-])c1cc([N+](=O)[O-])c(-c2ccn[nH]2)s1 | inactive: -0.5%
11 | Cc1ccc(OP(=O)(Nc2ccc([N+](=O)[O-])cn2)Oc2ccc(C)cc2)cc1 | inactive: 0.2%
12 | Cc1ccc2nc3c(c(C)c2c1)CC(C(Cl)Cl)S3 (stereo unspecified) | inactive: -0.2%
13 | COc1ccc(N/C(=N/P(=O)(N2CCOCC2)N2CCOCC2)N2CCOCC2)cc1 | inactive: 0.1%
14 | Cc1c2c(nc3ccccc13)SC(C(Cl)Cl)C2 (stereo unspecified) | inactive: 0%
15 | O=C(OC1CN2CCC1CC2)C12CC3CC(CC(C3)C1)C2 (stereo unspecified) | inactive: 0.2%
16 | Cc1cc(=O)[nH]c(N[N+](=O)[O-])n1 | inactive: -0.6%
17 | Cc1ccc(NCCc2c([N+](=O)[O-])cc([N+](=O)[O-])cc2[N+](=O)[O-])cc1 | inactive: 0.2%
18 | Nc1cccc2c([As](=O)(O)O)cccc12 | inactive: 1%
19 | CCCOP(=S)(Nc1nc(N)cc(=O)[nH]1)OCCC | inactive: 0.3%
20 | COc1cc(C2NCCC3(OCCO3)C2(C)C)cc(OC)c1OC (stereo unspecified) | inactive: 0.5%
21 | CCOP(=O)(Nc1cccc2ccccc12)OCC | inactive: 0.4%
22 | Cc1cccc(OCC(=O)OC2CN3CCC2CC3)c1 (stereo unspecified) | inactive: 0%

Row | Compound | activation
23 | CCOP1(=S)c2c(C)nn(CCC#N)c2N=C(c2ccc(F)cc2)N1C (stereo unspecified) | inactive: -0.2%
24 | CCOP1(=S)c2c(C)nn(CCC#N)c2N=C(c2ccccc2F)N1C (stereo unspecified) | inactive: 0.5%
25 | O=P(Nc1nccs1)(Oc1ccccc1)Oc1ccccc1 | inactive: 0%
26 | CS(=O)(=O)c1cc([N+](=O)[O-])c2no[n+]([O-])c2c1 | inactive: 0.2%
27 | Nc1ccccc1[As](=O)(O)c1ccccc1 | inactive: 0.9%
28 | O=C(O)COc1ccc([As](=O)(O)O)cc1[N+](=O)[O-] | inactive: 0%
29 | O=P1(Nc2ncccn2)COc2ccccc2OC1 | inactive: 0.2%
30 | Cc1ccc(OCC(=O)OC2CN3CCC2CC3)cc1 (stereo unspecified) | inactive: -0.4%
31 | CC1CCC(C(C)C)C(OP(=O)(Nc2ccccn2)c2ccccc2)C1 (stereo unspecified) | inactive: 0.7%
32 | Cc1ccc(C(=O)OC2CN3CCC2CC3)cc1 (stereo unspecified) | inactive: 0.2%
33 | CN(C)C1(CNC(=O)c2ccc(S(C)(=O)=O)cc2)CCCCC1 | inactive: -0.3%
34 | CC(C)/C=N\N=C(\N)N[N+](=O)[O-] | inactive: 0.1%
35 | CN(C(=O)Cc1ccc(Cl)c(Cl)c1)[C@@H]1CCCC[C@H]1N1CCCC1 | inactive: -0.5%
36 | CCC1=CC2Cc3nc4ccc(Cl)cc4c(N)c3C(C1)C2 (stereo unspecified) | inactive: 0.4%
37 | CCOP(=O)(NC(=NC(C)c1ccccc1)NC(C)c1ccccc1)OCC (stereo unspecified) | inactive: -0.2%
38 | CCOP(=O)(Nc1ccc(C)cn1)OCC | inactive: 0.4%
39 | Clc1n[nH]nc1-c1nn[nH][15n]1 | inactive: 0%
40 | CC(C)(C)C(=O)NC(Sc1ncccn1)C(Cl)(Cl)Cl (stereo unspecified) | inactive: 0.1%
41 | CC(C)C(=O)NC(Sc1ccccc1)C(Cl)(Cl)Cl (stereo unspecified) | inactive: 0.1%
42 | O=P(Nc1nccs1)(c1ccccc1)c1ccccc1 | inactive: 0.2%
43 | c1nnnn1CCn1cnnn1 | inactive: -0.2%
44 | CC(=O)NC(SC(=S)N(C)C)C(Cl)(Cl)Cl (stereo unspecified) | inactive: 0.1%

Row | Compound | activation
45 | Nc1ccc([As](=O)(O)c2ccc([N+](=O)[O-])cc2)cc1 | inactive: -0.3%
46 | C(Cc1nn[nH]n1)Cc1nn[nH]n1 | inactive: 0%
47 | CN(C)C1(CNC(=O)c2ccc(Cl)c(S(N)(=O)=O)c2)CCCCC1 | inactive: 0%
48 | O=P(Nc1nc2ccccc2s1)(c1ccccc1)c1ccccc1 | inactive: -0.2%
49 | C[C@H]1OP(=O)(Oc2ccccc2)[C@H](O)[C@H](O)[C@H]1N=[N+]=[N-] (stereo partly specified) | inactive: 0%
50 | CCC(=O)N1C2C3N(C(=O)CC)C1C1N(C(=O)CC)C(C(N1C(=O)CC)N3C(=O)CC)N2C(=O)CC | inactive: 0%
51 | COC(=O)c1cc2c(s1)N=C(c1ccccc1)N(C)P2(=O)N1CCOCC1 (stereo unspecified) | inactive: 0.3%
52 | CC(=O)NC(SC(=S)N(CC(C)C)CC(C)C)C(Cl)(Cl)Cl (stereo unspecified) | inactive: -0.2%
53 | Cc1ccc(OP(=O)(Nc2ccccn2)Oc2ccc(C)cc2)cc1 | inactive: 0.8%
54 | Cc1ccccc1OP(=O)(Nc1ccccn1)Oc1ccccc1C | inactive: -0.3%
55 | CN(C)C(=O)Oc1noc2ccccc12 | inactive: 0.6%
56 | O=c1c2cc([N+](=O)[O-])ccc2[nH]c2c([N+](=O)[O-])cc([N+](=O)[O-])cc12 | inactive: -0.2%
57 | c1ccc(-c2nn[nH]n2)c(-c2nn[nH]n2)c1 | inactive: 0.5%
58 | Cc1ccc(NP(=O)(Oc2cccc(C)c2)Oc2cccc(C)c2)nc1 | inactive: -0.3%
59 | O=C(NC1CCS(=O)(=O)C1)NP(=S)(Oc1ccccc1)Oc1ccccc1 (stereo unspecified) | inactive: -0.3%
60 | C[C@@H]1C=CCP(=O)(Oc2ccccc2)O1 (stereo partly specified) | inactive: 0.3%
61 | C[C@H]1OP(=O)(Oc2ccccc2)C[C@@H]2O[C@@H]21 (stereo partly specified) | inactive: 0%
62 | CC(=O)Nc1ccc([As](=O)(O)O)c(O)c1 | inactive: 0.5%
63 | CC(=O)Nc1ccc(Oc2c([N+](=O)[O-])cc([N+](=O)[O-])cc2[N+](=O)[O-])cc1 | inactive: 0.2%
64 | O=P1(Nc2nc3ccc(Cl)cc3s2)COc2ccccc2O1 (stereo unspecified) | inactive: -0.2%
65 | CCOc1ccc(C2=NCC(CBr)S2)cc1 (stereo unspecified) | inactive: 0.6%
66 | CC(C)(C)C(=O)NC(Sc1ccccc1)C(Cl)(Cl)Cl (stereo unspecified) | inactive: 0.4%
